Molecular target: T1, ParA2 (Vibrio cholerae, UniProt Q9KKJ2)
T1 construct: gene VC_A1115
Experiment: biochemical

With `CNc1ccccc1C(=O)O[C@H]1[C@@H](O)[C@H](n2cnc3c(N)ncnc32)O[C@@H]1CO[P@@](=O)(O)O[P@](=O)(O)OP(=O)(O)O` [MANT-ATP] the Kd was roughly 11 µM.

Source: PMC10287910 (Nucleic Acids Research, 2023)
